Results as given in publication PMC7190983, “A Putative Efflux Transporter of the ABC Family, YbhFSR, in Escherichia coli Functions in Tetracycline Efflux and Na^+(Li^+)/H^+ Transport” (Frontiers in Microbiology, 2020).

Test system: Nc1ncnc2c1ncn2[C@@H]1O[C@H](COP(=O)(O)OP(=O)(O)OP(=O)(O)O)[C@@H](O)[C@H]1O
Assay: purified protein
Details: 100 mM HEPES pH 7.4, 2.5 mM MgSO4, 30 °C, purified His6-YbhF alone

“YbhF (Overexpression-YbhF) (Escherichia coli K-12)” was tested, and the Km was 500 ± 100 µM and the Vmax was 0.192 µmol/min/mg.
